The series can be described thus: 14 d stability at 37° C. of isotope internal standards in the internal standard solution with different antioxidants (LC-MS/MS peak area). Format: physicochemical. As for the experimental part: A mixed internal standard working solution was prepared, and concentrations of cyclosporine A-d4, tacrolimus-13C-d4, and sirolimus-d3 were respectively 1 μg/mL, 50 ng/mL and 50 ng/mL; and an additive 1.0 mg/mL vitamin E was added, acetonitrile served as a solvent, and mixed into an internal standard solution.
Supernatant was taken and detected by high performance liquid chromatography-tandem mass spectrometry; and a spectrogram of the standard curve at the lowest point was shown in FIG. 1. Specific analysis conditions were as follows: gradient elution was used to an instrumental method; and the tandem mass spectrum: electrospray ionization (ESI) ion source and positive ion Multiple Reaction Monitoring (MRM) Mode were taken.
Antioxidants included 2,6-di-tert-butyl-p-cresol, vitamin E, vitamin C, β-carotene, and sodium metabisulfite.

The record followed here is patent publication US12135333B2, “Detection kit for detecting immunosuppressors in whole blood by high performance liquid chromatography-tandem mass spectrometry and detection method thereof” (Hangzhou Calibra Diagnostics Co., Ltd., priority 2021, dated 2024).

For cyclosporine A-d4 [CyclosporineA-d4], the “Peak area of internal standard solution” value runs as follows: (14 d at 37° C., antioxidant 2,6-di-tert-butyl-p-cresol) 136211; (14 d at 37° C., antioxidant P-carotene) 147555; (14 d at 37° C., antioxidant Sodium metabisulfite) 139515; (14 d at 37° C., antioxidant Vitamin C) 147298; (14 d at 37° C., antioxidant Vitamin E) 143337; (14 d at 37° C., free of adding antioxidant) 129898. For the same substance, the “Peak area of internal standard solution” value (Initial values) is 140935.
